# Laboratory results: PubChem BioAssay (NCI)
#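 Briefly, cells in 96-well plates were exposed to five compound concentrations for 48 h, and endpoints were estimated by linear interpolation. Abbreviation: GI50, concentration required for 50% inhibition of growth. Definition used: TGI = concentration required for complete inhibition of growth.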
# Experiments:
# Test in all cases: NCI tumour cell line growth inhibition, 48 h
# NCI-H522 lung = test system: NCI-H522 lung
# HT29 colon = test system: HT29 colon
# NCI-H226 lung = test system: NCI-H226 lung
# MCF7 breast = test system: MCF7 breast
# SK-MEL-2 melanoma = test system: SK-MEL-2 melanoma
# CCRF-CEM leukemia = test system: CCRF-CEM leukemia
# SK-MEL-5 melanoma = test system: SK-MEL-5 melanoma
# IGROV1 ovarian = test system: IGROV1 ovarian
# OVCAR-3 ovarian = test system: OVCAR-3 ovarian
# SK-OV-3 ovarian = test system: SK-OV-3 ovarian
# UO-31 renal = test system: UO-31 renal
# HCT-15 colon = test system: HCT-15 colon
# EKVX NSCLC = test system: EKVX NSCLC
# SF-539 CNS = test system: SF-539 CNS
# OVCAR-8 ovarian = test system: OVCAR-8 ovarian
# OVCAR-5 ovarian = test system: OVCAR-5 ovarian
# HCT-116 colon = test system: HCT-116 colon
# HOP-92 NSCLC = test system: HOP-92 NSCLC
# MALME-3M melanoma = test system: MALME-3M melanoma
# A498 renal = test system: A498 renal
# SF-295 CNS = test system: SF-295 CNS
# RXF 393 renal = test system: RXF 393 renal
# OVCAR-4 ovarian = test system: OVCAR-4 ovarian
# HOP-62 NSCLC = test system: HOP-62 NSCLC
# HL-60(TB) leukemia = test system: HL-60(TB) leukemia
# A549 NSCLC = test system: A549 NSCLC
# RPMI-8226 leukemia = test system: RPMI-8226 leukemia
# SNB-19 CNS = test system: SNB-19 CNS
# K-562 leukemia = test system: K-562 leukemia
# UACC-257 melanoma = test system: UACC-257 melanoma
# COLO 205 colon = test system: COLO 205 colon
# LOX IMVI melanoma = test system: LOX IMVI melanoma
# HCC-2998 colon = test system: HCC-2998 colon
# M14 melanoma = test system: M14 melanoma
# SK-MEL-28 melanoma = test system: SK-MEL-28 melanoma
# ACHN renal = test system: ACHN renal
# SW-620 colon = test system: SW-620 colon
# MDA-MB-231 breast = test system: MDA-MB-231 breast
# MDA-N = test system: MDA-N
# DU-145 prostate = test system: DU-145 prostate
# KM12 colon = test system: KM12 colon
# SN12C renal = test system: SN12C renal
# NCI-H460 lung = test system: NCI-H460 lung
# U251 CNS = test system: U251 CNS
# HS 578T breast = test system: HS 578T breast
# NCI-H322M lung = test system: NCI-H322M lung
# NCI/ADR-RES ovarian = test system: NCI/ADR-RES ovarian
# 786-0 renal = test system: 786-0 renal
# SF-268 CNS = test system: SF-268 CNS
# MOLT-4 leukemia = test system: MOLT-4 leukemia
# BT-549 breast = test system: BT-549 breast
# T-47D breast = test system: T-47D breast
# PC-3 prostate = test system: PC-3 prostate
# MDA-MB-435 = test system: MDA-MB-435
# TK-10 renal = test system: TK-10 renal
# UACC-62 melanoma = test system: UACC-62 melanoma
# NCI-H23 lung = test system: NCI-H23 lung
# CAKI-1 renal = test system: CAKI-1 renal
# SNB-75 CNS = test system: SNB-75 CNS
# SR leukemia = test system: SR leukemia
smiles,measurement,setting,value
CC(O)COc1ccc([As](=O)(O)O)cc1N (stereo unspecified),GI50,NCI-H522 lung,> 100 µM
same,TGI,NCI-H522 lung,> 100 µM
same,GI50,HT29 colon,> 100 µM
same,TGI,HT29 colon,> 100 µM
same,GI50,NCI-H226 lung,> 100 µM
same,TGI,NCI-H226 lung,> 100 µM
same,GI50,MCF7 breast,> 100 µM
same,TGI,MCF7 breast,> 100 µM
same,GI50,SK-MEL-2 melanoma,> 100 µM
same,TGI,SK-MEL-2 melanoma,> 100 µM
same,GI50,CCRF-CEM leukemia,> 100 µM
same,TGI,CCRF-CEM leukemia,> 100 µM
same,GI50,SK-MEL-5 melanoma,> 100 µM
same,TGI,SK-MEL-5 melanoma,> 100 µM
same,GI50,IGROV1 ovarian,> 100 µM
same,TGI,IGROV1 ovarian,> 100 µM
same,GI50,OVCAR-3 ovarian,> 100 µM
same,TGI,OVCAR-3 ovarian,> 100 µM
same,GI50,SK-OV-3 ovarian,> 100 µM
same,TGI,SK-OV-3 ovarian,> 100 µM
same,GI50,UO-31 renal,> 100 µM
same,TGI,UO-31 renal,> 100 µM
same,GI50,HCT-15 colon,> 100 µM
same,TGI,HCT-15 colon,> 100 µM
same,GI50,EKVX NSCLC,> 100 µM
same,TGI,EKVX NSCLC,> 100 µM
same,GI50,SF-539 CNS,> 100 µM
same,TGI,SF-539 CNS,> 100 µM
same,GI50,OVCAR-8 ovarian,> 100 µM
same,TGI,OVCAR-8 ovarian,> 100 µM
same,GI50,OVCAR-5 ovarian,> 100 µM
same,TGI,OVCAR-5 ovarian,> 100 µM
same,GI50,HCT-116 colon,> 100 µM
same,TGI,HCT-116 colon,> 100 µM
same,GI50,HOP-92 NSCLC,> 100 µM
same,TGI,HOP-92 NSCLC,> 100 µM
same,GI50,MALME-3M melanoma,> 100 µM
same,TGI,MALME-3M melanoma,> 100 µM
same,GI50,A498 renal,> 100000 nM
same,TGI,A498 renal,> 100 µM
same,GI50,SF-295 CNS,> 100 µM
same,TGI,SF-295 CNS,> 100 µM
same,GI50,RXF 393 renal,> 100 µM
same,TGI,RXF 393 renal,> 100 µM
same,GI50,OVCAR-4 ovarian,> 100 µM
same,TGI,OVCAR-4 ovarian,> 100 µM
same,GI50,HOP-62 NSCLC,> 100 µM
same,TGI,HOP-62 NSCLC,> 100 µM
same,GI50,HL-60(TB) leukemia,> 100 µM
same,TGI,HL-60(TB) leukemia,> 100 µM
same,GI50,A549 NSCLC,> 100 µM
same,TGI,A549 NSCLC,> 100 µM
same,GI50,RPMI-8226 leukemia,> 100 µM
same,TGI,RPMI-8226 leukemia,> 100 µM
same,GI50,SNB-19 CNS,> 100 µM
same,TGI,SNB-19 CNS,> 100 µM
same,GI50,K-562 leukemia,> 100 µM
same,TGI,K-562 leukemia,> 100 µM
same,GI50,UACC-257 melanoma,> 100 µM
same,TGI,UACC-257 melanoma,> 100 µM
same,GI50,COLO 205 colon,> 100 µM
same,TGI,COLO 205 colon,> 100 µM
same,GI50,LOX IMVI melanoma,> 100 µM
same,TGI,LOX IMVI melanoma,> 100 µM
same,GI50,HCC-2998 colon,> 100 µM
same,TGI,HCC-2998 colon,> 100 µM
same,GI50,M14 melanoma,> 100 µM
same,TGI,M14 melanoma,> 100 µM
same,GI50,SK-MEL-28 melanoma,> 100 µM
same,TGI,SK-MEL-28 melanoma,> 100 µM
same,GI50,ACHN renal,> 100 µM
same,TGI,ACHN renal,> 100 µM
same,GI50,SW-620 colon,> 100 µM
same,TGI,SW-620 colon,> 100 µM
same,GI50,MDA-MB-231 breast,> 100 µM
same,TGI,MDA-MB-231 breast,> 100 µM
same,GI50,MDA-N,> 100 µM
same,TGI,MDA-N,> 100 µM
same,GI50,DU-145 prostate,> 100 µM
same,TGI,DU-145 prostate,> 100 µM
same,GI50,KM12 colon,> 100 µM
same,TGI,KM12 colon,> 100 µM
same,GI50,SN12C renal,> 100 µM
same,TGI,SN12C renal,> 100 µM
same,GI50,NCI-H460 lung,> 100 µM
same,TGI,NCI-H460 lung,> 100 µM
same,GI50,U251 CNS,> 100 µM
same,TGI,U251 CNS,> 100 µM
same,GI50,HS 578T breast,> 100 µM
same,TGI,HS 578T breast,> 100 µM
same,GI50,NCI-H322M lung,> 100 µM
same,TGI,NCI-H322M lung,> 100 µM
same,GI50,NCI/ADR-RES ovarian,> 100 µM
same,TGI,NCI/ADR-RES ovarian,> 100 µM
same,GI50,786-0 renal,> 100 µM
same,TGI,786-0 renal,> 100 µM
same,GI50,SF-268 CNS,> 100 µM
same,TGI,SF-268 CNS,> 100 µM
same,GI50,MOLT-4 leukemia,> 100 µM
same,TGI,MOLT-4 leukemia,> 100 µM
same,GI50,BT-549 breast,> 100 µM
same,TGI,BT-549 breast,> 100 µM
same,GI50,T-47D breast,> 100 µM
same,TGI,T-47D breast,> 100 µM
same,GI50,PC-3 prostate,> 100 µM
same,TGI,PC-3 prostate,> 100 µM
same,GI50,MDA-MB-435,> 100 µM
same,TGI,MDA-MB-435,> 100 µM
same,GI50,TK-10 renal,> 100 µM
same,TGI,TK-10 renal,> 100 µM
same,GI50,UACC-62 melanoma,> 100 µM
same,TGI,UACC-62 melanoma,> 100 µM
same,GI50,NCI-H23 lung,> 100 µM
same,TGI,NCI-H23 lung,> 100 µM
same,GI50,CAKI-1 renal,> 100 µM
same,TGI,CAKI-1 renal,> 100 µM
same,GI50,SNB-75 CNS,> 100 µM
same,TGI,SNB-75 CNS,> 100 µM
O=[N+]([O-])c1ccc(N/N=C2/CCCC/C(=N\Nc3ccc([N+](=O)[O-])cc3[N+](=O)[O-])CS(=O)(=O)C2)c([N+](=O)[O-])c1,GI50,NCI-H522 lung,78.7 µM
same,TGI,NCI-H522 lung,> 100 µM
same,GI50,MCF7 breast,29.5 µM
same,GI50,CCRF-CEM leukemia,> 100 µM
same,TGI,CCRF-CEM leukemia,> 100 µM
same,GI50,SK-OV-3 ovarian,93.8 µM
same,TGI,SK-OV-3 ovarian,> 100 µM
same,GI50,SF-539 CNS,26.4 µM
same,GI50,OVCAR-8 ovarian,17.9 µM
same,GI50,SR leukemia,> 100 µM
same,TGI,SR leukemia,> 100 µM
same,GI50,MALME-3M melanoma,> 100 µM
same,TGI,MALME-3M melanoma,> 100 µM
same,GI50,A498 renal,316 nM
same,TGI,A498 renal,26.1 µM
same,GI50,SF-295 CNS,29.5 µM
same,GI50,RXF 393 renal,13 µM
same,GI50,OVCAR-4 ovarian,21.3 µM
same,GI50,HL-60(TB) leukemia,> 100 µM
same,TGI,HL-60(TB) leukemia,> 100 µM
same,GI50,SNB-19 CNS,80.9 µM
same,TGI,SNB-19 CNS,> 100 µM
same,GI50,SK-MEL-28 melanoma,21.8 µM
same,GI50,SW-620 colon,> 100 µM
same,TGI,SW-620 colon,> 100 µM
same,GI50,MDA-MB-231 breast,17.1 µM
same,TGI,MDA-MB-231 breast,31.4 µM
same,GI50,U251 CNS,34.5 µM
same,TGI,U251 CNS,> 100 µM
same,GI50,HS 578T breast,16.7 µM
same,TGI,HS 578T breast,27.9 µM
same,GI50,NCI/ADR-RES ovarian,> 100 µM
same,TGI,NCI/ADR-RES ovarian,> 100 µM
same,GI50,786-0 renal,23.5 µM
same,GI50,SF-268 CNS,18.6 µM
same,GI50,NCI-H23 lung,23.1 µM
same,GI50,CAKI-1 renal,> 100 µM
same,TGI,CAKI-1 renal,> 100 µM
